Active and inactive are the calls of the source. The rule behind the calls is not given here.
Columns and labels:
[1] = target: T1, 5-hydroxytryptamine receptor 2C (Homo sapiens, UniProt P28335); experiment: Agonist activity at human 5-HT2C receptor expressed in human Flp-In-293 cells assessed as induction of calcium flux by measuring log (Emax/EC50) incubated for 1 hr by Fluo-4 direct dye based FLIPR assay; assay type: functional, cell-based
[2] = target: T2, 5-hydroxytryptamine receptor 2B (Homo sapiens, UniProt P41595); experiment: Agonist activity at human 5-HT2B receptor expressed in human Flp-In-293 cells assessed as induction of calcium flux by measuring log(Emax/EC50) incubated for 1 hr by Fluo-4 direct dye based FLIPR assay; assay type: functional, cell-based
[3] = target: T3, 5-hydroxytryptamine receptor 2A (Homo sapiens, UniProt P28223); experiment: Agonist activity at human 5-HT2A receptor expressed in human Flp-In-293 cells assessed as induction of calcium flux by measuring log(Emax/EC50) incubated for 1 hr by Fluo-4 direct dye based FLIPR assay; assay type: functional, cell-based
[4] = target: T3, 5-hydroxytryptamine receptor 2A; experiment: Agonist activity at human 5-HT2A receptor expressed in human Flp-In-293 cells assessed as induction of calcium flux incubated for 1 hr by Fluo-4 direct dye based FLIPR assay relative to 5-HT; assay type: functional, cell-based
[5] = target: T2, 5-hydroxytryptamine receptor 2B; experiment: Agonist activity at human 5-HT2B receptor expressed in human Flp-In-293 cells assessed as induction of calcium flux incubated for 1 hr by Fluo-4 direct dye based FLIPR assay relative to 5-HT; assay type: functional, cell-based
[6] = target: T2, 5-hydroxytryptamine receptor 2B; details: Flp-In-293, time 1.0 hrs
[7] = target: T3, 5-hydroxytryptamine receptor 2A; details: Flp-In-293, time 1.0 hrs
[8] = target: T1, 5-hydroxytryptamine receptor 2C; experiment: Agonist activity at human 5-HT2C INI receptor expressed in human Flp-In-293 cells assessed as induction of calcium flux incubated for 1 hr by Fluo-4 direct dye based FLIPR assay relative to 5-HT; assay type: functional, cell-based; details: filed as agonist
Outline: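 Calcium flux in Flp-In-293 cells stably expressing the human 5-HT2C INI isoform, Fluo-4 Direct loading for 1 h at 37 °C. Drug dilutions identical to those in the parallel Tango assay, 300 s read at 1 read/s, normalized to % 5-HT. Triplicate, mean ± SEM (n = 3). Bias factors were calculated from change in relative activity, log(Emax/EC50).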

Sequences of proteins named here, by UniProt entry; tags and fusion partners are left off. A change or cut given only in a name is not applied to a line headed by its entry.
UniProt P28335: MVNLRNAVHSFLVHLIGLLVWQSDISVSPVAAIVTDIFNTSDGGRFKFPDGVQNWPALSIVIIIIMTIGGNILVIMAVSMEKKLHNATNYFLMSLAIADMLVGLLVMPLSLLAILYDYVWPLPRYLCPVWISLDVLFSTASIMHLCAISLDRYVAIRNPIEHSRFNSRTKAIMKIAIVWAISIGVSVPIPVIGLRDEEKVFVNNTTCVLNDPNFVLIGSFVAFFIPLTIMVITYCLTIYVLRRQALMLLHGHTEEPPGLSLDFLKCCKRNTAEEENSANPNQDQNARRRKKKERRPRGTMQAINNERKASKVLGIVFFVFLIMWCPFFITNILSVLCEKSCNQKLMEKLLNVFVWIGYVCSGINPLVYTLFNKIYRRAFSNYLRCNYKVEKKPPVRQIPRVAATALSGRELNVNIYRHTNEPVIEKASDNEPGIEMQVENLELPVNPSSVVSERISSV
UniProt P41595, whole entry: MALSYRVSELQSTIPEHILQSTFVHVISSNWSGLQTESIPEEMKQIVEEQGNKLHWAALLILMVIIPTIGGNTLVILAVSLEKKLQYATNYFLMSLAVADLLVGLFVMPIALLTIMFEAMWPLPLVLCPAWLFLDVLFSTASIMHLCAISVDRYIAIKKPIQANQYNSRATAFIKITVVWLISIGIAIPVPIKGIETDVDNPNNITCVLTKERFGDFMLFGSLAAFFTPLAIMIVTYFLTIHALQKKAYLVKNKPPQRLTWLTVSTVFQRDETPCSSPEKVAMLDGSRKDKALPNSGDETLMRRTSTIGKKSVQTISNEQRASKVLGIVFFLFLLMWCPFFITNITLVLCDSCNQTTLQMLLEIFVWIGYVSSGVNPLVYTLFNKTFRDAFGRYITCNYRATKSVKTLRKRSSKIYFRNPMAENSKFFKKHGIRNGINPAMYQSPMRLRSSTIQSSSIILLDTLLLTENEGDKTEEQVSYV
UniProt P28223, whole entry: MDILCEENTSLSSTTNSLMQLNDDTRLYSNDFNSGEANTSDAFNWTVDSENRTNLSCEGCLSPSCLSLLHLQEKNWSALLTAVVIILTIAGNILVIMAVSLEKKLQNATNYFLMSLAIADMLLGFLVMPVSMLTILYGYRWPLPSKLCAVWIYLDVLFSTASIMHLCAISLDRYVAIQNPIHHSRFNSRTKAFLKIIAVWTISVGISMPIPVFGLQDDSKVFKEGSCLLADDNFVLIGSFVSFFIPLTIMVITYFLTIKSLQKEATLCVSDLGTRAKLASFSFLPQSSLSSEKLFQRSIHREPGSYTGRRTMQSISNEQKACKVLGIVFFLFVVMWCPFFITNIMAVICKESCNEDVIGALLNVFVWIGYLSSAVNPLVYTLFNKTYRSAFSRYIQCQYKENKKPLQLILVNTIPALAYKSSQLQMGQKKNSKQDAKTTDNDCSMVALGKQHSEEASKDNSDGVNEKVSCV

[9] = target: T1, 5-hydroxytryptamine receptor 2C; experiment: Agonist activity at human 5-HT2C INI receptor expressed in human HEK293 cells assessed as induction of beta-arrestin-2 recruitment incubated for 20 hrs by Tango assay relative to 5HT; assay type: cell-based
Outline: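 Tango assay in HTLA cells (HEK line expressing TEV-fused β-arrestin-2 and tTA-driven luciferase) transfected with 5-HT2C INI–tTA fusion carrying a TEV site. Cells were stimulated with the same dilutions used for FLIPR, 20 h at 37 °C and 5% CO2, then lysed with Bright-Glo for 20 min at room temperature and read by luminescence. Data normalized to % 5-HT and fitted sigmoidally; n = 3 in triplicate. Bias from log(Emax/EC50).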

[10] = target: T1, 5-hydroxytryptamine receptor 2C; experiment: Agonist activity at human 5-HT2C receptor expressed in human Flp-In-293 cells assessed as induction of calcium flux incubated for 1 hr by Fluo-4 direct dye based FLIPR assay relative to 5-HT; assay type: functional, cell-based
[11] = target: T1, 5-hydroxytryptamine receptor 2C; details: Flp-In-293, time 1.0 hrs

| Compound | log(ratio) [1] | log(ratio) [2] | log(ratio) [3] | Emax ([4]; filed as agonist) [%] | Emax [4] | Emax [5] | pEC50 [6] | pEC50 [7] | Emax [8] [%] | Emax [9] [%] | Emax ([10]; filed as agonist) [%] | pEC50 [11] | Emax [10] | Emax ([5]; filed as agonist) [%] |
| --- | --- | --- | --- | --- | --- | --- | --- | --- | --- | --- | --- | --- | --- | --- |
| CCCOc1ccc2c(c1[C@H]1C[C@@H]1CN)CCO2 | 7.72 | 6.08 | 5.62 | – | 31% | 31% | – | – | – | – | – | – | – | – |
| C=CCOc1ccc2c(c1[C@@H]1C[C@H]1CN)CCO2 | – | – | – | – | inactive | inactive | inactive | inactive | – | – | – | – | – | – |
| CCOc1ccc2occc2c1[C@H]1C[C@@H]1CN | 8.61 | 6.77 | 6.82 | – | – | – | – | – | – | – | – | – | – | 50 |
| NC[C@H]1C[C@@H]1c1c(OCCF)ccc2c1CCO2 | – | – | – | – | – | inactive | inactive | – | – | – | – | – | – | – |
| C=CCOc1ccc2oc(CC)cc2c1[C@H]1C[C@@H]1CN | – | – | – | – | inactive | 19% | – | inactive | 94 | 35 | 102 | – | – | – |
| CCc1cc2c([C@@H]3C[C@H]3CN)c(OC)ccc2o1 | 6.94 | inactive | inactive | – | inactive | inactive | inactive | inactive | – | – | – | – | – | – |
| NC[C@@H]1C[C@H]1c1c(OCC2CC2)ccc2c1CCO2 | 6.36 | inactive | inactive | – | inactive | inactive | inactive | inactive | – | – | – | – | – | – |
| CCOc1ccc2occc2c1[C@@H]1C[C@H]1CN | 7.61 | inactive | 5.41 | – | – | inactive | inactive | – | – | – | – | – | – | – |
| CCc1cc2c([C@H]3C[C@@H]3CN)c(OC)ccc2o1 | 8.57 | 6.96 | 5.88 | 72 | – | – | – | – | – | – | – | – | – | 55 |
| CCCOc1ccc2oc(CC)cc2c1[C@@H]1C[C@H]1CN | inactive | inactive | inactive | – | inactive | inactive | inactive | inactive | – | – | – | inactive | inactive | – |
| NC[C@@H]1C[C@H]1c1c(OCCF)ccc2c1CCO2 | – | – | – | – | – | inactive | inactive | – | – | – | – | – | – | – |
| CCOc1ccc2oc(CC)cc2c1[C@@H]1C[C@H]1CN | 6.82 | inactive | inactive | – | inactive | inactive | inactive | inactive | – | – | – | – | – | – |
| CCc1cc2c([C@H]3C[C@@H]3CN)c(OCCF)ccc2o1 | – | – | – | 44 | – | 27% | – | – | – | – | – | – | – | – |
| CCCOc1ccc2oc(CC)cc2c1[C@H]1C[C@@H]1CN | 7.07 | inactive | inactive | – | inactive | inactive | inactive | inactive | – | – | 96 | – | – | – |
| CCOc1ccc2oc(CC)cc2c1[C@H]1C[C@@H]1CN | 7.82 | 6.07 | 5.13 | – | 35% | 36% | – | – | – | – | – | – | – | – |
| CCc1cc2c([C@@H]3C[C@H]3CN)c(OCCF)ccc2o1 | – | – | – | – | inactive | inactive | inactive | inactive | – | – | – | – | – | – |
| CCc1cc2c([C@H]3C[C@@H]3CN)c(OCC3CC3)ccc2o1 | 6.86 | inactive | inactive | – | inactive | inactive | inactive | inactive | – | – | – | – | – | – |
| NC[C@H]1C[C@@H]1c1c(OCC2CC2)ccc2c1CCO2 | 7.56 | 6.09 | 5.35 | – | 17% | 33% | – | – | – | – | – | – | – | – |
| CCc1cc2c([C@@H]3C[C@H]3CN)c(OCC3CC3)ccc2o1 | 6.19 | inactive | inactive | – | inactive | inactive | inactive | inactive | – | – | – | – | – | – |
| C=CCOc1ccc2c(c1[C@H]1C[C@@H]1CN)CCO2 | – | – | – | 49 | – | 35% | – | – | – | – | – | – | – | – |
| CCCOc1ccc2c(c1[C@@H]1C[C@H]1CN)CCO2 | 6.99 | inactive | inactive | – | inactive | inactive | inactive | inactive | – | – | – | – | – | – |

The next lines start with results.

| log(ratio) [1] | log(ratio) [2] | log(ratio) [3] | Emax ([4]; filed as agonist) [%] | Emax [4] | Emax [5] | pEC50 [6] | pEC50 [7] | Emax [8] [%] | Emax [9] [%] | Emax ([10]; filed as agonist) [%] | pEC50 [11] | Emax [10] | Compound | Emax ([5]; filed as agonist) [%] |
| --- | --- | --- | --- | --- | --- | --- | --- | --- | --- | --- | --- | --- | --- | --- |
| 8.05 | 6.47 | 6.14 | 49 | – | – | – | – | – | – | – | – | – | C=C(F)COc1ccc2occc2c1[C@H]1C[C@@H]1CN | – |
| 6.97 | 5.7 | inactive | – | inactive | – | – | inactive | – | – | – | – | – | C=C(F)COc1ccc2occc2c1[C@@H]1C[C@H]1CN | – |
| – | – | – | – | inactive | inactive | inactive | inactive | – | – | – | – | – | C=CCOc1ccc2occc2c1[C@@H]1C[C@H]1CN | – |
| – | – | – | 46 | – | 31% | – | – | – | – | – | – | – | C=CCOc1ccc2occc2c1[C@H]1C[C@@H]1CN | – |
| 7.92 | 6.18 | 5.74 | – | 25% | – | – | – | – | – | – | – | – | NC[C@H]1C[C@@H]1c1c(OCC2CC2)ccc2occc12 | – |
| 6.89 | 5.71 | inactive | – | inactive | – | – | inactive | – | – | – | – | – | NC[C@@H]1C[C@H]1c1c(OCC2CC2)ccc2occc12 | – |
| 7.99 | inactive | 5.73 | – | 21% | inactive | inactive | – | – | – | – | – | – | CCCOc1ccc2occc2c1[C@H]1C[C@@H]1CN | – |
| 7 | inactive | inactive | – | inactive | inactive | inactive | inactive | – | – | – | – | – | CCCOc1ccc2occc2c1[C@@H]1C[C@H]1CN | – |
| 7.6 | 6.43 | 5.86 | – | 19% | – | – | – | – | – | – | – | – | C=C(C)COc1ccc2occc2c1[C@H]1C[C@@H]1CN | – |
| – | – | – | – | inactive | inactive | inactive | inactive | – | – | – | inactive | inactive | C=CCOc1ccc2oc(CC)cc2c1[C@@H]1C[C@H]1CN | – |
| 6.43 | 5.65 | inactive | – | inactive | – | – | inactive | – | – | – | – | – | C=C(C)COc1ccc2occc2c1[C@@H]1C[C@H]1CN | – |

From ChEMBL document CHEMBL4680082 (J Med Chem, 2016)
